This note sets out measurements from PubChem BioAssay AID720632 (Broad Institute, 2013).

Protein sequences, listed by entry. Tags and fused reporters are not part of them. Lines headed by an entry give the natural chain unless they say otherwise; changes in a name come on top.
UniProt P55212: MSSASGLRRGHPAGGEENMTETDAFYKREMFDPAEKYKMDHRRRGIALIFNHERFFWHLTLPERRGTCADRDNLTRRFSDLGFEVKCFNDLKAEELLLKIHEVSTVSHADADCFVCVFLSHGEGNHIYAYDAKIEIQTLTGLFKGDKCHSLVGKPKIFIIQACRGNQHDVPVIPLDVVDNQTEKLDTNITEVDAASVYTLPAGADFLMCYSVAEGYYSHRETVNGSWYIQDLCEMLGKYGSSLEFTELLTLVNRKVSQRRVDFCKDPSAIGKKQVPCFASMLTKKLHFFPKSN

This experiment deals with Caspase-6 (Homo sapiens) (UniProt P55212). The experiment can be described thus: human caspase-6 inhibitors, dose response, biochemical, VEID-R110 fluorescence, cherry-pick (AID 720632). The conditions noted are these: caspase-6, VEID-R110 fluorogenic substrate.

For `C[N+]1=C2C=CC=CC=C2SC12C([N+](=O)[O-])=CC([N+](=O)[O-])=C[C-]2[N+](=O)[O-]` (stereo unspecified), the AC50 was 1700 nM.
